Source: publication PMC6338644 (The FASEB Journal, 2018)
Structures can show the parent of a compound that is named as a salt.

Tested on: AMPK phosphorylation (pAMPK Thr172)
Details: 20–24 h

NC(=O)c1ncn([C@@H]2O[C@H](CO)[C@@H](O)[C@H]2O)c1N [AICAR, 5-aminoimidazole-4-carboxamide ribonucleoside]
increase in AMPK activity in podocytes (podocytes, 1 mM): 2 fold

CN(C)C(=N)N=C(N)N [Metformin, 1,1-Dimethylbiguanide hydrochloride]
increase in AMPK phosphorylation (activity) (myotubes and podocytes, 2 mM): 2- to 3 fold
